# Earlier results in patent US20140080772A1, “TREATMENTS FOR MELANOMA” (The Board of Regents of the University of Texas System, priority 2012, published 2014).
# By UniProt entry, the sequences of proteins in these tests, tags left out.
# UniProt P49841, whole entry: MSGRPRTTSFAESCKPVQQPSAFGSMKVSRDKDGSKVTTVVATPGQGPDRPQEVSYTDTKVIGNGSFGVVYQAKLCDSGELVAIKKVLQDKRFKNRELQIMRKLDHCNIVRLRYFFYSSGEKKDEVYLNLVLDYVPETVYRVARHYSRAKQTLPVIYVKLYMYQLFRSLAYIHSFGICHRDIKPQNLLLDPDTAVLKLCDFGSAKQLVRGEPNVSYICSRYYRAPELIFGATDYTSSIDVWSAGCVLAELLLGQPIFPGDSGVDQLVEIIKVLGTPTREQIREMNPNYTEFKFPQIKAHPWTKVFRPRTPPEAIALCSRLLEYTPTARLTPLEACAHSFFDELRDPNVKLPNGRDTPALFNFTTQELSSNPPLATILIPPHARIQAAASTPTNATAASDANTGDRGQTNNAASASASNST
# Target: GSK3β (Homo sapiens, UniProt P49841)
# Settings: cited from earlier work
smiles,measurement,value
Cn1cc(C2=C(c3cn(CCCSC(=N)N)c4ccccc34)C(=O)NC2=O)c2ccccc21 [RO 31-8220],IC50,15 nM
